Results published in ChEMBL document CHEMBL3817772, “Design, Synthesis, and Biological Evaluations of Hydroxypyridonecarboxylic Acids as Inhibitors of HIV Reverse Transcriptase Associated RNase H” (J Med Chem, 2016).

What was measured:
[1] = Inhibition of HIV-1 RT-RNase H domain fragment expressed in Escherichia coli by fluorescence-based assay; set-up: species or system Human immunodeficiency virus 1
[2] = Inhibition of HIV-1 RT-RNase H activity expressed in Escherichia coli JM109 using internal cleavage measuring HTS-1 as substrate by fluorescence-based assay; set-up: species or system Human immunodeficiency virus 1
Procedure, shortened: (§1)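 RT RNase H cleavage of fluorescein/Dabcyl-labelled RNA/DNA duplexes, with substrate in excess over RT. HTS-1 probes internal cleavage, HTS-2 DNA 3'-end-directed cleavage, and HTS-3 (fluorescein RNA annealed to Dabcyl DNA) RNA 5'-end-directed cleavage.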

[3] = Inhibition of HIV-1 RT-RNase H activity expressed in Escherichia coli JM109 using DNA 3'-end directed cleavage measuring HTS-2 as substrate by fluorescence-based assay; set-up: species or system Human immunodeficiency virus 1; procedure, shortened: as §1
[4] = Inhibition of HIV-1 RT-RNase H activity expressed in Escherichia coli JM109 using RNA 5'-end directed cleavage measuring HTS-3 as substrate by fluorescence-based assay; set-up: species or system Human immunodeficiency virus 1; procedure, shortened: as §1
[5] = target: Human immunodeficiency virus type 1 reverse transcriptase (Human immunodeficiency virus 1, UniProt Q72547); assay: Inhibition of HIV-1 RT RNA-dependent DNA polymerase activity expressed in Escherichia coli JM109 using [3H]TTP/ poly(rA)-oligo(dT)16 as substrate incubated for 20 mins by liquid scintillation spectrometric analysis
Procedure, shortened: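 RNA-dependent DNA polymerase reaction in 50 mM Tris-HCl pH 7.4 (37°C), 60 mM KCl, 5 mM MgCl2, with 10 µM [3H]-TTP and 40 nM poly(rA)-oligo(dT)16. Started with 10 nM RT, 20 min at 37°C. Quenched in ice-cold 10% TCA plus 20 mM sodium pyrophosphate, glass-fiber filtered, washed with TCA and ethanol. Incorporation counted by liquid scintillation.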

SMILES	IC50 [1] [µM]	IC50 [2] [µM]	IC50 [3] [µM]	IC50 [4] [µM]	IC50 [5] [µM]
O=C(O)c1cn(Cc2ccc(Cl)cc2)cc(O)c1=O	7.8	17			
O=C(O)c1cn(Cc2cccc(C(F)(F)F)c2)cc(O)c1=O	11	18			
O=C(O)c1cn(Cc2cccc3ccccc23)cc(O)c1=O	1.9	2.7	4.3	5.4	8.5
O=C(O)c1cn(Cc2ccc(-c3cnc4ccccc4c3)cc2)cc(O)c1=O	1		1.2	0.9	1.1
O=C(O)c1cn(Cc2ccc(-c3cccnc3)cc2)cc(O)c1=O	2.6	3.6	10	15	
COc1ccc(Cn2cc(O)c(=O)c(C(=O)O)c2)cc1	4.8	2.5	15	20	
